{"source": "paper PMC3855329", "about": "“A Fluorescence-Based Thermal Shift Assay Identifies Inhibitors of Mitogen Activated Protein Kinase Kinase 4” (PLoS ONE, 2013)", "target": "T1, human MAP2K4-EE (Homo sapiens, UniProt P45985, S257E/T261E)", "T1 construct": "Human MAP2K4-EE (residues 37–399); His tag (pMCSG7 vector, TEV-cleavable) (N); made in house; host or cells: E. coli KRX cells with pGro7 (GroEL/GroES)", "T1 sequence (P45985 37-399 S257E/T261E)": "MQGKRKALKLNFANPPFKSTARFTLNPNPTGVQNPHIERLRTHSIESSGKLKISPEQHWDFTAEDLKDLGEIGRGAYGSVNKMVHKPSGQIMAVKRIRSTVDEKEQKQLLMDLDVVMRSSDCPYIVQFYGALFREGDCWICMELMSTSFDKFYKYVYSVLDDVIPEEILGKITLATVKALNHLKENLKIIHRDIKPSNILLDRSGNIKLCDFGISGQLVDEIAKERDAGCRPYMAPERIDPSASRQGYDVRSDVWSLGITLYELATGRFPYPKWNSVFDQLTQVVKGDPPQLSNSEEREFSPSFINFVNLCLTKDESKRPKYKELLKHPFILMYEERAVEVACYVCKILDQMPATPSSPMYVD", "assay": "Fluorescence-based thermal shift (FTS) assay", "format": "binding", "conditions": "10 µM compound, mean ± SD"}
{"smiles": "CN[C@@H]1C[C@H]2O[C@@](C)([C@@H]1OC)n1c3ccccc3c3c4c(c5c6ccccc6n2c5c31)C(=O)NC4", "note": "[Staurosporine]", "values": [{"measurement": "ΔTm at 10 µM", "setting": "n = 3", "value": "10.03±0.05", "unit": "°C"}, {"measurement": "ΔTm at 10 µM", "setting": "n = 3, listed as staurosporine", "value": "> 4", "unit": "°C"}]}
